Source: EP2970215B1, “PYRROLIDINE DERIVATIVES, PHARMACEUTICAL COMPOSITIONS CONTAINING THEM, AND THEIR USE IN THERAPY” (AbbVie Deutschland GmbH & Co. KG, priority 2013, dated 2014)

Biological target: T1, human GlyT1c transporter (Homo sapiens, UniProt P48067)
T1 construct: expressed in transfected cells; host or cells: CHO cells (recombinant; line hGlyT1c_5_CHO is named for the uptake assay)
T1 sequence (P48067 1-706): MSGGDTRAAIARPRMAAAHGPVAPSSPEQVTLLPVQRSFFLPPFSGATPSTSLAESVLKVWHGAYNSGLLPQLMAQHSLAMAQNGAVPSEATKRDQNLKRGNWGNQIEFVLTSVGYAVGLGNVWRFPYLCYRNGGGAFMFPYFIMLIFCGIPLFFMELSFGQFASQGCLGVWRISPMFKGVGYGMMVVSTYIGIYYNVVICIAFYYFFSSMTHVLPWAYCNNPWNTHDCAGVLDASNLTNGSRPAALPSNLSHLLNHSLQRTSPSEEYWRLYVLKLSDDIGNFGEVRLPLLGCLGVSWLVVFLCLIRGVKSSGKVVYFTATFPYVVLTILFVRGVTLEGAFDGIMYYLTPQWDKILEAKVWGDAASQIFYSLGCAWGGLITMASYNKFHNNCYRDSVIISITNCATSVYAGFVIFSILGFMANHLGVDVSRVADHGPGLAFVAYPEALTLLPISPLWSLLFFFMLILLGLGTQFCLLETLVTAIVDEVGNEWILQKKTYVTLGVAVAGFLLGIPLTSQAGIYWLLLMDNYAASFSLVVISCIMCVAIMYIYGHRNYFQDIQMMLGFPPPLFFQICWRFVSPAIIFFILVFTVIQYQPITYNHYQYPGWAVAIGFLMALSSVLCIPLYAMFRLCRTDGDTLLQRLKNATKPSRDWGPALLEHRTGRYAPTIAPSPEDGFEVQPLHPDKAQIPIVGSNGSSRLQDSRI
Test: Radioligand binding assay using recombinant CHO cell membranes expressing human GlyT1
Conditions: radioligand binding to human GlyT1c transporter-expressing membranes

Ki: ≤ 10 µM
Substance: N-[trans-1-(ethylsulfonyl)-4-phenylpyrrolidin-3-y]-4-(trifluoromethyl)benzamide [Example 122]
